Literature values, collected in PMC4220016, “The binding characteristics and orientation of a novel radioligand with distinct properties at 5-HT3A and 5-HT3AB receptors” (Neuropharmacology, 2014).

Test system: 5-HT3 receptor F226A
Details: ref Thompson et al., 2005; cited from earlier work

SMILES: CN1C2CCCC1CC(NC(=O)c1nn(C)c3ccccc13)C2 (stereo not shown) [Granisetron]
- effect of mutation on binding affinity (in words): no effect
